Assays:
[1] = compound: O=C1C(c2cccc3ccccc23)Oc2ccccc2N1Cc1ccc(F)cc1; experiment: Inhibition of recombinant human His-tagged GSK3beta assessed as substrate Vmax at 1.25 uM using GS-2 peptide as substrate in presence of [33P]gamma-ATP after 15 mins by microbeta counting method (reference value: 5872 +/- 560 cpm)
[2] = compound: O=C1C(c2cccc3ccccc23)Oc2ccccc2N1Cc1ccc(F)cc1; experiment: Inhibition of recombinant human His-tagged GSK3beta assessed as substrate Vmax at 2.5 uM using GS-2 peptide as substrate in presence of [33P]gamma-ATP after 15 mins by microbeta counting method (reference value: 5872 +/- 560 cpm)
[3] = compound: O=C1C(c2cccc3ccccc23)Oc2ccccc2N1Cc1ccc(F)cc1; experiment: Inhibition of recombinant human His-tagged GSK3beta assessed as substrate Vmax at 5 uM using GS-2 peptide as substrate in presence of [33P]gamma-ATP after 15 mins by microbeta counting method (reference value: 5872 +/- 560 cpm)
[4] = compound: O=C1C(c2cccc3ccccc23)Oc2ccccc2N1Cc1ccc(F)cc1; experiment: Inhibition of recombinant human His-tagged GSK3beta assessed as substrate Vmax at 7.5 uM using GS-2 peptide as substrate in presence of [33P]gamma-ATP after 15 mins by microbeta counting method (reference value: 5872 +/- 560 cpm)
[5] = compound: O=C1C(c2cccc3ccccc23)Oc2ccccc2N1Cc1ccc(F)cc1; experiment: Inhibition of recombinant human His-tagged GSK3beta assessed as substrate Km at 1.25 uM using GS-2 peptide as substrate in presence of [33P]gamma-ATP after 15 mins by microbeta counting method (reference value: 11.8 +/- 2.2 uM)
[6] = compound: O=C1C(c2cccc3ccccc23)Oc2ccccc2N1Cc1ccc(F)cc1; experiment: Inhibition of recombinant human His-tagged GSK3beta assessed as substrate Km at 2.5 uM using GS-2 peptide as substrate in presence of [33P]gamma-ATP after 15 mins by microbeta counting method (reference value: 11.8 +/- 2.2 uM)
[7] = compound: O=C1C(c2cccc3ccccc23)Oc2ccccc2N1Cc1ccc(F)cc1; experiment: Inhibition of recombinant human His-tagged GSK3beta assessed as substrate Km at 5 uM using GS-2 peptide as substrate in presence of [33P]gamma-ATP after 15 mins by microbeta counting method (reference value: 11.8 +/- 2.2 uM)
[8] = compound: O=C1C(c2cccc3ccccc23)Oc2ccccc2N1Cc1ccc(F)cc1; experiment: Inhibition of recombinant human His-tagged GSK3beta assessed as substrate Km at 7.5 uM using GS-2 peptide as substrate in presence of [33P]gamma-ATP after 15 mins by microbeta counting method (reference value: 11.8 +/- 2.2 uM)
[9] = compound: O=C1C(c2cccc3ccccc23)Oc2cc3c(cc2N1Cc1ccccc1)OCO3; experiment: Inhibition of recombinant human His-tagged GSK3beta assessed as substrate Vmax at 3 uM using GS-2 peptide as substrate in presence of [33P]gamma-ATP after 15 mins by microbeta counting method (reference value: 19490 +/- 852 cpm)
[10] = compound: O=C1C(c2cccc3ccccc23)Oc2cc3c(cc2N1Cc1ccccc1)OCO3; experiment: Inhibition of recombinant human His-tagged GSK3beta assessed as substrate Vmax at 6 uM using GS-2 peptide as substrate in presence of [33P]gamma-ATP after 15 mins by microbeta counting method (reference value: 19490 +/- 852 cpm)
[11] = compound: O=C1C(c2cccc3ccccc23)Oc2cc3c(cc2N1Cc1ccccc1)OCO3; experiment: Inhibition of recombinant human His-tagged GSK3beta assessed as substrate Vmax at 9 uM using GS-2 peptide as substrate in presence of [33P]gamma-ATP after 15 mins by microbeta counting method (reference value: 19490 +/- 852 cpm)
[12] = compound: O=C1C(c2cccc3ccccc23)Oc2cc3c(cc2N1Cc1ccccc1)OCO3; experiment: Inhibition of recombinant human His-tagged GSK3beta assessed as substrate Vmax at 12 uM using GS-2 peptide as substrate in presence of [33P]gamma-ATP after 15 mins by microbeta counting method (reference value: 19490 +/- 852 cpm)
[13] = compound: O=C1C(c2cccc3ccccc23)Oc2cc3c(cc2N1Cc1ccccc1)OCO3; experiment: Inhibition of recombinant human His-tagged GSK3beta assessed as substrate Km at 3 uM using GS-2 peptide as substrate in presence of [33P]gamma-ATP after 15 mins by microbeta counting method (reference value: 9.9 +/- 0.9 uM)
[14] = compound: O=C1C(c2cccc3ccccc23)Oc2cc3c(cc2N1Cc1ccccc1)OCO3; experiment: Inhibition of recombinant human His-tagged GSK3beta assessed as substrate Km at 6 uM using GS-2 peptide as substrate in presence of [33P]gamma-ATP after 15 mins by microbeta counting method (reference value: 9.9 +/- 0.9 uM)
[15] = compound: O=C1C(c2cccc3ccccc23)Oc2cc3c(cc2N1Cc1ccccc1)OCO3; experiment: Inhibition of recombinant human His-tagged GSK3beta assessed as substrate Km at 9 uM using GS-2 peptide as substrate in presence of [33P]gamma-ATP after 15 mins by microbeta counting method (reference value: 9.9 +/- 0.9 uM)
[16] = compound: O=C1C(c2cccc3ccccc23)Oc2cc3c(cc2N1Cc1ccccc1)OCO3; experiment: Inhibition of recombinant human His-tagged GSK3beta assessed as substrate Km at 12 uM using GS-2 peptide as substrate in presence of [33P]gamma-ATP after 15 mins by microbeta counting method (reference value: 9.9 +/- 0.9 uM)

B1: Glycogen synthase kinase-3 beta (Homo sapiens), P49841 (protein)
chain: MSGRPRTTSFAESCKPVQQPSAFGSMKVSRDKDGSKVTTVVATPGQGPDRPQEVSYTDTKVIGNGSFGVVYQAKLCDSGELVAIKKVLQDKRFKNRELQIMRKLDHCNIVRLRYFFYSSGEKKDEVYLNLVLDYVPETVYRVARHYSRAKQTLPVIYVKLYMYQLFRSLAYIHSFGICHRDIKPQNLLLDPDTAVLKLCDFGSAKQLVRGEPNVSYICSRYYRAPELIFGATDYTSSIDVWSAGCVLAELLLGQPIFPGDSGVDQLVEIIKVLGTPTREQIREMNPNYTEFKFPQIKAHPWTKVFRPRTPPEAIALCSRLLEYTPTARLTPLEACAHSFFDELRDPNVKLPNGRDTPALFNFTTQELSSNPPLATILIPPHARIQAAASTPTNATAASDANTGDRGQTNNAASASASNST
- Vmax [1]: 4540 cpm
- Vmax [2]: 4030 cpm
- Vmax [3]: 3300 cpm
- Vmax [4]: 2750 cpm
- Km [5]: 9.5 µM
- Km [6]: 10.1 µM
- Km [7]: 9.3 µM
- Km [8]: 11 µM
- Vmax [9]: 14000 cpm
- Vmax [10]: 10300 cpm
- Vmax [11]: 7980 cpm
- Vmax [12]: 5290 cpm
- Km [13]: 10.3 µM
- Km [14]: 9.9 µM
- Km [15]: 10.9 µM
- Km [16]: 10.2 µM
